Biological target: GFP-CB1R (Mus musculus, UniProt P47746)
Conditions: pretreatment with unlabeled antagonist

Amino acid sequences for entries named in this document (tags omitted).
UniProt P47746, whole entry: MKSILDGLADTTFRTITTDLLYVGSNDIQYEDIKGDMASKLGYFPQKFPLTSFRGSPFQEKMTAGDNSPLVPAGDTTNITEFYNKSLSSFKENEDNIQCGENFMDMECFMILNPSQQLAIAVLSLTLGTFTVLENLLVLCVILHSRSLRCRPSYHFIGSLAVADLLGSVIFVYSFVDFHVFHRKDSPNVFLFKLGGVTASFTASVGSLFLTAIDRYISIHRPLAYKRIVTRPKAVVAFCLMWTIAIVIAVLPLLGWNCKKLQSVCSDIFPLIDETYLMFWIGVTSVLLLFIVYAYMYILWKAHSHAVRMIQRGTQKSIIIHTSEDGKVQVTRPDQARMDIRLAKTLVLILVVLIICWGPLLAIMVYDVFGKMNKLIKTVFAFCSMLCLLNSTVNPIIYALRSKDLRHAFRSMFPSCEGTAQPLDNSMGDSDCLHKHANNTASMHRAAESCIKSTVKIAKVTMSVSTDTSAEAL

effect on fluo-cannabinoid binding: completely prevented
SMILES: Cc1c(C(=O)NN2CCCCC2)nn(-c2ccc(Cl)cc2Cl)c1-c1ccc(Cl)cc1 [rimonabant]
